In experiment [1] the test system is CCK-2 receptor. The experiment can be described thus: Inhibition of the binding of [125I]-BH-CCK-8 to the cortical membrane of guinea pigs. The conditions noted are these: IC50 CCK-2 (guinea pig cortex) / IC50 CCK-1 (rat pancreatic acini, Table 2). The procedure: (§1) For this purpose binding tests were performed on cerebral cortex of male albino guinea pigs outbred from the Hartley strain, using as marked binder the [^125I]-BH-CCK-8 sulphate, according to the procedure described by Makovec F. [J. Med. Chem. 35, (1992),28].
(§2) The incubation of the cerebral membranes together with the radioactive tracers and the compounds under study was effected on multi-well plates for 120 minutes at 25° C. Each well contained membrane corresponding to about 0.5 mg of proteins/ml and 25 pM of marked binder in a total volume of 250 micro litres. The specific binding was determined as the difference between the binding in the absence and in the presence of CCK-8, 1.10^−6M. At the end of the incubation a rapid filtration of the plate was performed under vacuum and the radioactivity of the individual filters extracted from the wells was measured with a γ-emission counter. The results obtained are shown in Table 3, in which the tested compounds are indicated, the IC50 calculated with the regression method on a set of at least 3 tests for each compound studied and an index derived from the ratio of the affinity obtained for the two types of receptor CCK-2 and CCK-1.

The chains behind the UniProt entries cited, without tags or fusion partners. Residues count along the entry.
UniProt H0VZC5, 1-426: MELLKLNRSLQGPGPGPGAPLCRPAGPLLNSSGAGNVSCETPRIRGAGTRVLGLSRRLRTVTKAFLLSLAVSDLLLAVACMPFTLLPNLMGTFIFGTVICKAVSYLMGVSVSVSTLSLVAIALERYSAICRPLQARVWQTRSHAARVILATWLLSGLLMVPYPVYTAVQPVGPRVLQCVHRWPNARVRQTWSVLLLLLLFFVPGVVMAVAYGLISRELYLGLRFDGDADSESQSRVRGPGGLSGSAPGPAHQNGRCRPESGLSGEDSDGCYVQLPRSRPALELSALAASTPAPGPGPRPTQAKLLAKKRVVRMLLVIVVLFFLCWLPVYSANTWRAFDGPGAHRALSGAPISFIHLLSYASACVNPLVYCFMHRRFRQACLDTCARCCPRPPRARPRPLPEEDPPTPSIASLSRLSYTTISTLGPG
UniProt P30551, whole entry: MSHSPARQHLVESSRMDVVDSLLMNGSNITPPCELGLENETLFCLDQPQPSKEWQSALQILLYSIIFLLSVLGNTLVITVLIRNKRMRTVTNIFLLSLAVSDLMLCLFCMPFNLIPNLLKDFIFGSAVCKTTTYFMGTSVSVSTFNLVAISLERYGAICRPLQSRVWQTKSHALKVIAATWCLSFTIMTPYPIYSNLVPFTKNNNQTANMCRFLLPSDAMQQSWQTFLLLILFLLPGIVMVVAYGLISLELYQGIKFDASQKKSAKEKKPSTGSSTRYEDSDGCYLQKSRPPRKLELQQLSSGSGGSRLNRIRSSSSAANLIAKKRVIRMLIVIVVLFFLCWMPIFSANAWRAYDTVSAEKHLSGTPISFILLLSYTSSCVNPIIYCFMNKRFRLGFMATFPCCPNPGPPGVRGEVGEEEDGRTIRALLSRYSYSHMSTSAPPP

Experiment [2] deals with CCK-2 receptor (Cavia porcellus, UniProt H0VZC5). The experiment is described as above. The conditions noted are these: read-out: IC50, inhibition of the binding of [125I]-BH-CCK-8 to the cortical membrane of guinea pigs; 120 minutes at 25° C.; 25 pM marked binder; at least 3 tests. The protocol:
as §1, §2

The target in another experiment is CCK-1 receptors (Rattus norvegicus, UniProt P30551). The experiment can be described thus: Inhibition of binding of [125I]-BH-CCK-8 to isolated rat pancreatic acini. The conditions noted are these: read-out: IC50, inhibition of binding of [125I]-BH-CCK-8 to isolated rat pancreatic acini; 30 minutes at 37° C.; at least 3 experiments.

Usually IC50 stands for the point on the concentration scale where inhibition reaches its midpoint.

SMILES strings stand for the structures.

In the case of `CCC(CC)CCC(NC(=O)c1ccccc1NC(=O)c1cc2ccccc2[nH]1)C(=O)O` (stereo not drawn), the “index derived from the ratio of the affinity obtained for the two types of receptor CCK-2 and CCK-1” value with CCK-2 receptor [1] is listed as 740. Besides, the IC50 at CCK-2 receptor [2] was determined as 14.8 µM; at CCK-1 receptors it was 0.02 µM.

Values taken from patent publication US7294648B2, “Anthranyl derivatives having an anticholecystokinin activity (anti-cck-1), a process for their preparation, and pharmaceutical use thereof” (Rottapharm S.p.A., priority 2002, dated 2007).
